Laboratory results taken from patent US6399349B1, “Human aminopeptidase P gene” (priority 1997, dated 2002).

Key:
[1] = biological target: T1, pulmonary endothelial AmP (Rattus norvegicus, UniProt Q99MA2); conditions: in vivo
T1 sequence (Q99MA2 23-650): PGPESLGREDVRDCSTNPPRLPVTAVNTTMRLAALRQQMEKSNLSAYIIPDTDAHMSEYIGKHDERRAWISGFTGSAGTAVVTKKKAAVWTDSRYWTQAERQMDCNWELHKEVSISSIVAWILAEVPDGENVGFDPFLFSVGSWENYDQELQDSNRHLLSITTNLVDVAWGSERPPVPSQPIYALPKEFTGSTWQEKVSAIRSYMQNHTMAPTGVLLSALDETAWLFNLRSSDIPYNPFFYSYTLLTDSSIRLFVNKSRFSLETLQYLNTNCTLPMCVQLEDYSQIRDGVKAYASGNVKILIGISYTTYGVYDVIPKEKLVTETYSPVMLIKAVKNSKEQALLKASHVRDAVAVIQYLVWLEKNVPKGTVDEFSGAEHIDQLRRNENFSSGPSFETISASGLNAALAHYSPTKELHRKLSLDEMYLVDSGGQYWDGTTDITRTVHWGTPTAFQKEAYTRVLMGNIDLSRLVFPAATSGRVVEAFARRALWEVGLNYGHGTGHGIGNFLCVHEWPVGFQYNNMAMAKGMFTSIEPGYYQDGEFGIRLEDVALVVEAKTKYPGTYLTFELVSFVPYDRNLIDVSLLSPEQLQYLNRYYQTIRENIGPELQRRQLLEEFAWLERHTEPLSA

AmP = biological target: T2, AmP (Rattus norvegicus, UniProt Q99MA2)
T2 sequence (Q99MA2 23-650): T1 sequence (Q99MA2 23-650)

Arg-Pro-Pro-[^3H]benzylamide [APPBz-^3H]
mean hydrolysis of APPBz-3H [1]: about 55% | hydrolysis of APPBz-3H in isolated perfused lungs (AmP): extensively hydrolyzed
